Here are results for one compound from PubChem BioAssay AID504913 (The Scripps Research Institute Molecular Screening Center, 2011).

Structures are written as SMILES. The list shows a part of the results, in another mix than the full data. The source made the active and inactive calls. Cut-off read from the data, not from the text of the source: active = activation above about 18%; inactive = the rest.

The nature of this assay: OPRM1-OPRD1 heterodimerization promoters, counter-screen for HTR5A agonist project, cell-based, luminescence (AID 504913). The conditions noted are these: U2OS counter-screen cells, complementation luminescence, 3 h; at 9.3 µM; stronger effect = higher value. (The purpose of a counterscreen is to sort out artefacts and off-target activity.)

As to `Cc1ccc(NP(C)(=O)Oc2ccccc2)c(C)c1` (stereo unspecified), the activation is inactive: 1.49%.
